Results as given in patent US20200093932A1, “TREATMENT OF CANCER” (BlueLink Pharmaceuticals, Inc., priority 2016, published 2020).

Tested on: B16.F10 mouse melanoma tumor model
Test: Example 1: CRLX101 with NLG-919 analog or INCB-024360 analog, tumor growth inhibition and delay
Type: in vivo
Conditions: same dosing; mean tumor volume vs vehicle when the control group reached the tumor volume endpoint

Structure (SMILES): Nc1nonc1C(=NO)Nc1ccc(F)c(Cl)c1 [INCB-024360 analog]
- TGI vs. Control (%): 6%
